The source of these data is ChEMBL document CHEMBL1123455, “Conformational effects on the activity of drugs. 11. Stereostructural models for the direct activation of the alpha- and beta-adrenergic receptor” (J Med Chem, 1986).

Sequences of proteins named here, by UniProt entry; tags and fusion partners are left off. A change or cut given only in a name is not applied to a line headed by its entry.
UniProt P15823: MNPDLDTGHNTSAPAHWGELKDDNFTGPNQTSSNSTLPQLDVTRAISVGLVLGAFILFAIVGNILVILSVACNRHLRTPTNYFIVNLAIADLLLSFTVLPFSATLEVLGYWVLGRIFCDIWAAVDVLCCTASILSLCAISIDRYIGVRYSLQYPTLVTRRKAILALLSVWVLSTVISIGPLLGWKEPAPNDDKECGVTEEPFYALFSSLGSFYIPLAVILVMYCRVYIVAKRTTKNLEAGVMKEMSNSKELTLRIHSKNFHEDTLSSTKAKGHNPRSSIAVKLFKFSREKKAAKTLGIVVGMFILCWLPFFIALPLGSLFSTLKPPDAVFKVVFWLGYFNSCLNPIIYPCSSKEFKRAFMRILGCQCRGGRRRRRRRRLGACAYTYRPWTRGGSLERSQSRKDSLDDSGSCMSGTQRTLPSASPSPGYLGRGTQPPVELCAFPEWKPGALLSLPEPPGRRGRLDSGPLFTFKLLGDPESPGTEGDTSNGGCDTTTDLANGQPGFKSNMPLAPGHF
UniProt P23944: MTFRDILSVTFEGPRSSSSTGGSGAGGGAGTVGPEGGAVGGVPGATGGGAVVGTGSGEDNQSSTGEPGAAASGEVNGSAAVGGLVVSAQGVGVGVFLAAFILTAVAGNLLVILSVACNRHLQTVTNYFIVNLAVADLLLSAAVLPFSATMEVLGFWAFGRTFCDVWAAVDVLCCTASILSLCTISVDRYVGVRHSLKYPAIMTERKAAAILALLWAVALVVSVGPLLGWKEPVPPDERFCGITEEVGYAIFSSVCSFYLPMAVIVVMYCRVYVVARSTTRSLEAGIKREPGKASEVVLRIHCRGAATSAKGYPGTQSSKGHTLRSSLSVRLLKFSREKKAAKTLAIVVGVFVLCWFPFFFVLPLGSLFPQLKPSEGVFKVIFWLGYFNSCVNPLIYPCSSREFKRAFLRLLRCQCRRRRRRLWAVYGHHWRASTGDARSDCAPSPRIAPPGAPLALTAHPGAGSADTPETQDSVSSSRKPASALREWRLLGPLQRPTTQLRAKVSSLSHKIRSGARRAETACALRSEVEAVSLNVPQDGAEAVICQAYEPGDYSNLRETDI
UniProt P43140: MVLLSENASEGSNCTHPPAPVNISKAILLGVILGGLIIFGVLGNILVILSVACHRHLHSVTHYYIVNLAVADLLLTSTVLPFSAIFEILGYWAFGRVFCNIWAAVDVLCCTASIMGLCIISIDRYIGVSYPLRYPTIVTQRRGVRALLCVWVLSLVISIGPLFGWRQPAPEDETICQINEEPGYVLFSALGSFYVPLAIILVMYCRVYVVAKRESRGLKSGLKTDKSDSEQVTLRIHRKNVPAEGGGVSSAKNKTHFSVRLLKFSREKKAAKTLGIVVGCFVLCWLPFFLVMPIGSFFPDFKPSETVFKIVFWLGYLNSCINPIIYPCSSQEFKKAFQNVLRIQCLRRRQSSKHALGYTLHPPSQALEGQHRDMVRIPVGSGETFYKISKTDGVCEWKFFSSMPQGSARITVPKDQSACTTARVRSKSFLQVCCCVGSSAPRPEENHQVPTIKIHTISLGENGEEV
UniProt P22086: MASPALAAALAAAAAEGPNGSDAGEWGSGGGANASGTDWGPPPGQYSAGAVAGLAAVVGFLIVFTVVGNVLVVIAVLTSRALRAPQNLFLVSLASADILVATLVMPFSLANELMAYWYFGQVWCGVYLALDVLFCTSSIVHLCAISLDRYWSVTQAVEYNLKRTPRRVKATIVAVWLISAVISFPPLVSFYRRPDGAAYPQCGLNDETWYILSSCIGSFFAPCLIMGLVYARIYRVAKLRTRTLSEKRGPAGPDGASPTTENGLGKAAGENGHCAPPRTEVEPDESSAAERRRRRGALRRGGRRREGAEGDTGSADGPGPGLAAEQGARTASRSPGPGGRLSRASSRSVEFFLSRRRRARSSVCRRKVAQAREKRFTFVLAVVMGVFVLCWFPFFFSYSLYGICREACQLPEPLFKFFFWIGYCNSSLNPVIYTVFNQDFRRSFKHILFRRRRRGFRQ
UniProt P19328: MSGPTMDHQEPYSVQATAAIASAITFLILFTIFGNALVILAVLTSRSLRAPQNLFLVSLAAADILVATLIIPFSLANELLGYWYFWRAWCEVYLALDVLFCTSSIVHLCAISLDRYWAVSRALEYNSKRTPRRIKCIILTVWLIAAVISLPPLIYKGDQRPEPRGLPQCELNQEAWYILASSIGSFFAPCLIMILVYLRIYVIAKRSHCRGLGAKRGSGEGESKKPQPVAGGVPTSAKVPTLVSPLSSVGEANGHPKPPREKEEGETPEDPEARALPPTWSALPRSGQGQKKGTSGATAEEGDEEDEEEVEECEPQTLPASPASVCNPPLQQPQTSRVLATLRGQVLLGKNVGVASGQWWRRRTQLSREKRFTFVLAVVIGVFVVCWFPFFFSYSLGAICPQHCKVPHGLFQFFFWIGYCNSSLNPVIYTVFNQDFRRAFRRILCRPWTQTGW
UniProt P22909: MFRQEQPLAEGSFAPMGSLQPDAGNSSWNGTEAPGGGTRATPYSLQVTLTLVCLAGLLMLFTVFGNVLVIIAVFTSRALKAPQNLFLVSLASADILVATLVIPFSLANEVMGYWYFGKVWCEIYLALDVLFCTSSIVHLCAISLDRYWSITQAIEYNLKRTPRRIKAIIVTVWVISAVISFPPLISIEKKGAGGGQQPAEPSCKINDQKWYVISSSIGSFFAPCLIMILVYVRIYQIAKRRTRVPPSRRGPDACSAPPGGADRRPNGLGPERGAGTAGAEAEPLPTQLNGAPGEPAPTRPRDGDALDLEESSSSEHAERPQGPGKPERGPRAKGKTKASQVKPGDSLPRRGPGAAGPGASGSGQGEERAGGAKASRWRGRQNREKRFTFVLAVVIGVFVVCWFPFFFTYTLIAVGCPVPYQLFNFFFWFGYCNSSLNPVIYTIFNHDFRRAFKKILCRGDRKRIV
UniProt P08588, whole entry, looked up: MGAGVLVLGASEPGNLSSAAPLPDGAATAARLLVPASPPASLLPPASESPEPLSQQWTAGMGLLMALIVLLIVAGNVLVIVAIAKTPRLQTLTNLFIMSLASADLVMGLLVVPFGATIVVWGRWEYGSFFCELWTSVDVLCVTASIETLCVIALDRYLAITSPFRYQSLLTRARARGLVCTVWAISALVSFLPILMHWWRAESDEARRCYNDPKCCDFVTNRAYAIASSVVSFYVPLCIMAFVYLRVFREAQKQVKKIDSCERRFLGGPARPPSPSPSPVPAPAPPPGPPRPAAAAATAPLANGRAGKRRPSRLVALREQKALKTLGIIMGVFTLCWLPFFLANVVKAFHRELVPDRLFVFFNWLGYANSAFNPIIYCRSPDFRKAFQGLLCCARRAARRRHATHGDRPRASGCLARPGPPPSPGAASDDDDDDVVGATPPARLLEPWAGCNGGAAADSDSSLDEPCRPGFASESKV
UniProt P13945: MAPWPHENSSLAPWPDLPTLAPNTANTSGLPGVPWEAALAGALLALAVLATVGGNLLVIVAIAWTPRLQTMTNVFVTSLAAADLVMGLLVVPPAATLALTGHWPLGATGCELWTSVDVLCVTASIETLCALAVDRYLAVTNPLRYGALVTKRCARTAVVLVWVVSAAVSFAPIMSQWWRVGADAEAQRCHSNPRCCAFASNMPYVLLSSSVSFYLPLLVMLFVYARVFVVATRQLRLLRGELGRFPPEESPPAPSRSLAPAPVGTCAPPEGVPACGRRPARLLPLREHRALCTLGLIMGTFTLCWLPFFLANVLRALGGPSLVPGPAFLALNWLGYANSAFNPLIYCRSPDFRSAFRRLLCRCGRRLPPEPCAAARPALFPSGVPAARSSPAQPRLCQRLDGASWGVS

The target in test [1] is T1, Adrenergic receptor alpha (Rattus norvegicus) (UniProt P15823+P23944+P43140+P22086+P19328+P22909). Conditions: Artery.
Test [2] addresses T1, Adrenergic receptor alpha (Rattus norvegicus). Conditions: Vas deferens.
Test [3] has as its target T2, Adrenergic receptor beta (Homo sapiens) (UniProt P08588+P07550+P13945). Conditions: Cavia porcellus.
Test [4] has as its target T2, Adrenergic receptor beta (Homo sapiens). Conditions: Cavia porcellus. This is another data set of the same source.

In the case of `Oc1ccc(C2(O)CCCNC2)cc1O` (stereo not drawn), the pD2 amounted to 4.01 in test [1], 4.53 in test [2], 6.75 in test [3] and 4.2 in test [4].

On to `Oc1ccc(C2CNCCO2)cc1O` (stereo not drawn), for which the pD2 was 5.82 in test [1], 4.75 in test [2], 5.31 in test [3] and 4.76 in test [4].
